Earlier results as cited in US7645795B2, “Method for treating amyotrophic lateral sclerosis” (BodyBio, Inc, priority 2004, dated 2010).

Tested on: ALS patients

Nc1nc2ccc(OC(F)(F)F)cc2s1 [riluzole]
Tolerability: poorly tolerated by a majority of patients
